These results are taken from ChEMBL document CHEMBL4033752, “Discovery of Potent and Selective Tricyclic Inhibitors of Bruton's Tyrosine Kinase with Improved Druglike Properties” (ACS Med Chem Lett, 2017).

Chains of the proteins cited; added tags and fusions are not shown. Lines headed by an entry give the natural chain unless they say otherwise; changes in a name come on top.
UniProt Q06187: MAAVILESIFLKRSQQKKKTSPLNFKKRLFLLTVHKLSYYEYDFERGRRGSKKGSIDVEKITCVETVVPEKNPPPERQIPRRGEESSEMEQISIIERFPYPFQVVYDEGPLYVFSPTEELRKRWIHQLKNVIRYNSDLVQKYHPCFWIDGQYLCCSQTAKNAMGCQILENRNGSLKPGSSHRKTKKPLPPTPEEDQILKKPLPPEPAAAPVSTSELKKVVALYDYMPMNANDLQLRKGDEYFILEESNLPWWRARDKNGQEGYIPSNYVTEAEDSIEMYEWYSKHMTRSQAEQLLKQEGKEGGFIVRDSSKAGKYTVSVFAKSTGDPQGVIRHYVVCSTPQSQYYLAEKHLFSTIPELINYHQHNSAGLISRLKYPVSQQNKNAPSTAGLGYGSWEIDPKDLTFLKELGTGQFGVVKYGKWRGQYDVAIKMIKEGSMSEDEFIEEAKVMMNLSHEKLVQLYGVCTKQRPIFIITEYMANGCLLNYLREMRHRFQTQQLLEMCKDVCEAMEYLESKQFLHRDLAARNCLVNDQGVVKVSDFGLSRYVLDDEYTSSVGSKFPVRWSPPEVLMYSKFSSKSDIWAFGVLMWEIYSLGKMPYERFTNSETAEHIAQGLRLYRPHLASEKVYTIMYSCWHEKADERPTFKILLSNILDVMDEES

For the experiment, the target named is Tyrosine-protein kinase BTK (Homo sapiens, UniProt Q06187).

In turn, `CN1CCN(c2ccc(Nc3cc(-c4cc(F)cc(N5CCn6c(cc7c6CCCC7)C5=O)c4CO)cn(C)c3=O)nc2)CC1` registered an IC50 of 29 nM. This counts as double-digit nanomolar.

As to `Cn1cc(-c2cc(F)cc(N3CCn4c(cc5c4CCCC5)C3=O)c2CO)cc(Nc2ccc(N3CCN(C4COC4)CC3)cn2)c1=O`, half-maximal inhibition (IC50) required 35 nM.

The IC50 is the concentration that gives 50% inhibition. High values mean weaker potency, low ones greater potency.
